# Publication PMC5189922 (Journal of medicinal chemistry, 2016)
# Amino acid sequences for entries named in this document (tags omitted).
# UniProt P35372, whole entry: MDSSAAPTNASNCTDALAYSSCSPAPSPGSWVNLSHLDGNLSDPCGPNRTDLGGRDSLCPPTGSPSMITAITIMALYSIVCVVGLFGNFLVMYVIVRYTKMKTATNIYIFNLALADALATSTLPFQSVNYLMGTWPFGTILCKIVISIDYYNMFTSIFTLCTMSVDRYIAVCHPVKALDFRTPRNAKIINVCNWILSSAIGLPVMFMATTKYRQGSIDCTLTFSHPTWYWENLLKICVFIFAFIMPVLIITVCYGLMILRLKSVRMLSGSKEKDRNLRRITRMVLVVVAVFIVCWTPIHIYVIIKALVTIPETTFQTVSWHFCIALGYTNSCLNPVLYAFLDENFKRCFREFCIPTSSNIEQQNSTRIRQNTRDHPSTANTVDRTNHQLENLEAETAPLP
# Tests used:
# [1] = biological target: human µ-opioid receptor (Homo sapiens, UniProt P35372); format: cell-based
# [2] = Conditioned place preference; conditions: 5 mg/kg and 10 mg/kg i.p., male Sprague Dawley rats, vs vehicle
# [3] = Accelerating rotarod performance assay; conditions: 10 mg/kg i.p., 4 to 40 rpm over 300 s
SMILES,Selectivity κ/µ [1],further results
COC(=O)[C@@H]1C=C(OC(=O)c2ccc(Cl)cc2)C(=O)[C@H]2[C@@]1(C)CC[C@H]1C(=O)O[C@H](c3ccoc3)C[C@]21C [Compound 13b],>330,–
"COC(=O)[C@@H]1C[C@H](OC(C)=O)C(=O)[C@H]2[C@@]1(C)CC[C@H]1C(=O)O[C@H](c3ccoc3)C[C@]21C [Compound 1a, salvinorin A, reference compound]",–,EC50 ([1]; read-out: EC50 ± SD µ): > 10 µM
"CN1CC[C@]23c4c5ccc(O)c4O[C@H]2[C@@H](O)C=C[C@H]3[C@H]1C5 [Morphine, morphine, reference compound]",–,conditioned place preference (CPP score) [2]: significant place preference; motor coordination / sedation on rotarod [3]: significant decrease in motor coordination
COC(=O)[C@@H]1C=C(OC(=O)c2ccc([N+](=O)[O-])cc2)C(=O)[C@H]2[C@@]1(C)CC[C@H]1C(=O)O[C@H](c3ccoc3)C[C@]21C [Compound 19b],>320,–
COC(=O)[C@@H]1C=C(OC(=O)c2ccc(C)cc2)C(=O)[C@H]2[C@@]1(C)CC[C@H]1C(=O)O[C@H](c3ccoc3)C[C@]21C [Compound 16b],>450,–
